# Tests used:
# mouse LSECs (mLSECs) = assay: Endocytosis competition of FITC-fNLPNTL uptake, fluorescence microscopy; format: cell-based; details: 20 μg/ml, 60 min at 37°C, serum-free medium
# Source text: Fig 7 Competitive effect of FSA on FITC-fNLPNTL uptake by human and murine LSECs. Primary cultures of hLSECs (A) and mLSECs (B) were established on Permanox chamber slides coated with human fibronectin. […] Uptake of FITC-fNLPNTL was inhibited by the presence of FSA in hLSECs (C) to a higher extent than seen in mLSECs (D).
# mouse Heps (mHeps) = assay: as above; details: 20 μg/ml, 60 min at 37°C, serum-free medium
substance,measurement,setting,value
Fluorescein-isothiocyanate- N-Formyl-Nle-Leu-Phe-Nle-Tyr-Lys [FITC-fNLPNTL],uptake in isolated LSECs,mouse LSECs (mLSECs),high uptake
same,uptake in isolated liver parenchymal cells (hepatocytes),mouse Heps (mHeps),high uptake

# Source: PMC4975464, “FITC Conjugation Markedly Enhances Hepatic Clearance of N-Formyl Peptides” (PLoS ONE, 2016)
